## OPERA 2.9 data: melting point values

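The OPERA project collected these measurements from public sources as training and test data for property models. A listed value is a point estimate from one report or more. Conditions of the individual experiments are not part of the data. A value may pool stereoisomers or salt forms, and the file does not say which form was measured. Some upstream entries may be estimates or bounds without being marked so.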

Melting points are in °C. Cells with "n/a" have no entry in this list.

structure (SMILES) | name | MP (°C)
Cc1noc(C(C)C)c1C(=O)O | 3-Methyl-5-(propan-2-yl)-1,2-oxazole-4-carboxylic acid | 149
CCCCC(CC)COCCCN (stereo not given) | 3-((2-Ethylhexyl)oxy)propylamine | -89.9
CN(C)S(=O)(=O)c1cc(Cl)c(N)cc1Cl | Benzenesulfonamide, 4-amino-2,5-dichloro-N,N-dimethyl- | 136
COC(=O)c1c(-c2ccccc2Cl)csc1N | methyl 2-amino-4-(2-chlorophenyl)thiophene-3-carboxylate | 94
O=C1CCCc2cc(S(=O)(=O)Cl)ccc2N1 | n/a | 209
CC(C)CNC(N)=S | Isobutylthiourea | 100
CC(C)c1ccc2c(c1)C(=O)C(=O)N2 | 5-Isopropyl-1H-indole-2,3-dione | 94
N#Cc1ccc(Nc2nccc(Cl)n2)cc1 | 4-[(4-Chloropyrimidin-2-yl)amino]benzonitrile | 216.1
CCOC(=O)c1c(C)[nH]c(C(=O)CCl)c1C | Ethyl 5-(chloroacetyl)-2,4-dimethyl-1H-pyrrole-3-carboxylate | 189
Clc1ncnc2ncccc12 | 4-Chloropyrido[2,3-d]pyrimidine | 238
O=Cc1cc(Br)c2c(c1)OCO2 | 7-Bromo-2H-1,3-benzodioxole-5-carbaldehyde | 118
Cc1c(NC(=S)Nc2c(C)n(C)n(-c3ccccc3)c2=O)c(=O)n(-c2ccccc2)n1C | n/a | 94
Cc1cc(N)n(CCC#N)n1 | 3-(5-amino-3-methyl-1H-pyrazol-1-yl)propanenitrile | 105
O=Cc1ccc(-c2cccc(Cl)c2Cl)o1 | 5-(2,3-Dichlorophenyl)furan-2-carbaldehyde | 96
CCCCCCCCCCCCCCCCCC(=O)OCC(COCC(COC(=O)CCCCCCCCCCCCCCCCC)(COC(=O)CCCCCCCCCCCCCCCCC)COC(=O)CCCCCCCCCCCCCCCCC)(COC(=O)CCCCCCCCCCCCCCCCC)COC(=O)CCCCCCCCCCCCCCCCC | Dipentaerythritol hexastearate | 75.55
NCCCN1CCN(c2ncccn2)CC1 | 3-(4-pyrimidin-2-ylpiperazin-1-yl)propan-1-amine | 73
Cc1cc(F)ccc1CC#N | 2-(4-fluoro-2-methylphenyl)acetonitrile | 25.5
Brc1ccc(Oc2ccccc2Br)cc1Br | 2',3,4-Tribromodiphenyl ether | 20
NNC(=O)C1CC1 | Cyclopropanecarbohydrazide | 93
O=C(O)c1ccc(Br)c(S(=O)(=O)Cl)c1 | 4-bromo-3-chlorosulfonyl-benzoic Acid | 182
C=C(C)C(=O)OCc1ccccc1 | Benzyl methacrylate | -22
O=[N+]([O-])c1ccc2c(c1)S(=O)(=O)C=C2 | 6-Nitro-1-benzothiophene 1,1-dioxide | 180
FC(F)(F)C(F)(OCCC[Si](Cl)(Cl)Cl)C(F)(F)F | n/a | 0
CC(C)(Oc1ccc(F)cc1)C(=O)O | Fluorofibric acid | 69
N#CCc1ccncc1 | 2-(PYRIDIN-4-YL)ACETONITRILE | 268
NNC(=O)CSc1nc2ccccc2o1 | 2-[(1,3-Benzoxazol-2-yl)sulfanyl]acetohydrazide | 170
Cc1ccc(-c2[nH]c(C#N)nc2Cl)cc1 | 4-Chloro-5-(4-methylphenyl)-1H-imidazole-2-carbonitrile | 152.1
O=C(c1ccc(F)cc1)N1CCNCC1 | 1-(4-fluorobenzoyl)piperazine | 75
Cc1ncc[nH]c1=O | 2-Hydroxy-3-methylpyrazine | 152.5
N#CCCNCCCCCCNCCC#N | 3,3'-(Hexane-1,6-diyldiazanediyl)dipropanenitrile | 17.85
C=C(C)C(=O)OC(C(F)(F)F)C(F)(F)F | n/a | -80.15
COc1cc(C(=O)O)ccc1OCc1ccccc1Cl | 4-[(2-chlorobenzyl)oxy]-3-methoxybenzoic acid | 144
CCCCCCCCCCCCCCCCCCCCCCOC(=O)CCCCCCCCCCCCCCCCCCCCC | Behenyl behenate | 74.25
CC(C)(C)C1CCc2sc(C(=O)O)cc2C1 (stereo not given) | n/a | 170
O=C(O)Cc1csc(-c2cccnc2)n1 | [2-(Pyridin-3-yl)-1,3-thiazol-4-yl]acetic acid | 116

Repeated from above, the 5 entries with the highest MP:

structure (SMILES) | name | MP (°C)
N#CCc1ccncc1 | 2-(PYRIDIN-4-YL)ACETONITRILE | 268
Clc1ncnc2ncccc12 | 4-Chloropyrido[2,3-d]pyrimidine | 238
N#Cc1ccc(Nc2nccc(Cl)n2)cc1 | 4-[(4-Chloropyrimidin-2-yl)amino]benzonitrile | 216.1
O=C1CCCc2cc(S(=O)(=O)Cl)ccc2N1 | n/a | 209
CCOC(=O)c1c(C)[nH]c(C(=O)CCl)c1C | Ethyl 5-(chloroacetyl)-2,4-dimethyl-1H-pyrrole-3-carboxylate | 189

Source: data files of OPERA 2.9 (Mansouri et al.), github.com/kmansouri/OPERA.